Measured values from ChEMBL document CHEMBL1139386, “Discovery of novel CB2 receptor ligands by a pharmacophore-based virtual screening workflow” (J Med Chem, 2009).

The chains behind the UniProt entries cited, without tags or fusion partners.
UniProt P34972, whole entry: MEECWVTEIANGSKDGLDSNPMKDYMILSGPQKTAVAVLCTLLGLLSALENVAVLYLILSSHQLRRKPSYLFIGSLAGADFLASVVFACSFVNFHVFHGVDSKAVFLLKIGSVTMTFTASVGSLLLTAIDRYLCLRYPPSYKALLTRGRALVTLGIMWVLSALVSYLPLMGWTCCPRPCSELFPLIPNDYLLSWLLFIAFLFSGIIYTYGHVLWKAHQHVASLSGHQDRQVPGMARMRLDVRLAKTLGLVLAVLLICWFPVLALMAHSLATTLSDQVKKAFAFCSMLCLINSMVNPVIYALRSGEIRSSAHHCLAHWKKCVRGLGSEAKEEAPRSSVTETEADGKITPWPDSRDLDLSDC

Biological target: Cannabinoid receptor 2 (Homo sapiens, UniProt P34972)
Assay: Binding affinity to CB2 receptor

CCCCCCC(C)(C)c1cc(OC)c([C@H]2C=C(CO)[C@@H]3C[C@H]2C3(C)C)c(OC)c1
Ki: 22.7 nM
